# Tested on: rat carotid artery
# Type: in vivo
# Conditions: applied to the perivascular side of the rat carotid artery
# Source text: In this model of restenosis, a balloon catheter is used to induce damage to the lumen of carotid arteries in rats. This damage causes extensive intimal hyperplasia and luminal narrowing, characteristic of restenosis. To determine the effect of drugs as antirestenosis agents, a polymeric dosage form of a drug is applied to the outside of the artery (perivascular application).
# Wistar rats weighing 400 g to 500 g were anesthetized with halothane. A vertical incision was made over the trachea and the left carotid artery was exposed. Two ligatures were placed around the external carotid artery and an arteriotomy was made between them. A 2 French Fogarty balloon catheter was introduced into the external carotid artery and pushed into the left common carotid artery and the balloon was inflated with saline. The catheter was passed up and down the entire length of the carotid artery three times to stretch the vessel and denude the endothelium. The catheter was removed and the ligatures were tied off on the external carotid artery. […] The wound was then closed and the animals recovered. After 14 days, the rats were sacrificed and pressure perfused at 100 mmHg with 10% buffered formaldehyde. […] Sections were stained with hematoxylin-and-eosin and Movat's stains and digitized for computer assisted morphometric analysis to quantify luminal narrowing and intimal hyperplasia.
smiles,measurement,value
O=C1C=CC(=O)c2c(O)cccc21 [juglone],necrosis or toxicity after perivascular application,excessive toxicities

# From patent publication US8883856B2, “Compositions and methods for the treatment of inflammatory diseases using topoisomerase inhibitors” (priority 2000, dated 2014)
